Test results: patent US7192924B2, “Corticotropin releasing factor 2 receptor agonists” (priority 2002, dated 2007)

How the values were obtained:
CRF2R = target: T1, CRF2R (Homo sapiens, UniProt Q13324); test: CRF2R agonist activity (EC50, Emax), called comparative CRF binding; assay type: cell-based
T1 sequence (Q13324 1-411): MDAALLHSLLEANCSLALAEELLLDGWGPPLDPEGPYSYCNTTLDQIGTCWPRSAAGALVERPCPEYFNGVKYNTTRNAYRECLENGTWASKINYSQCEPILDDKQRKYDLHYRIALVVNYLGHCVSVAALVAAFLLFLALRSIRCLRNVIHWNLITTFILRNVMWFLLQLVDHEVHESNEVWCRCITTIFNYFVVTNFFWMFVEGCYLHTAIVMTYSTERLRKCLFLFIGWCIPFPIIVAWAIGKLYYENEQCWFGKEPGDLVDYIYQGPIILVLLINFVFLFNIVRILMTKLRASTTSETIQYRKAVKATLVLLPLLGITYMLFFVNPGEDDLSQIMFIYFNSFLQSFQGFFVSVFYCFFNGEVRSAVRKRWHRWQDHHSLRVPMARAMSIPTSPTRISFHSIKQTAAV
Method in brief: (§1)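 Cells expressing only CRF1R or only CRF2R (or recombinant receptor) are contacted with peptide or vehicle control. Receptor activation is read as cAMP induction, measured in cell lysates or via a cAMP-responsive-element reporter gene such as luciferase.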

CRF1R = target: T2, CRF1R (Homo sapiens, UniProt P34998); test: CRF1R agonist activity (EC50, Emax), called comparative CRF binding; assay type: cell-based
T2 sequence (P34998 24-415): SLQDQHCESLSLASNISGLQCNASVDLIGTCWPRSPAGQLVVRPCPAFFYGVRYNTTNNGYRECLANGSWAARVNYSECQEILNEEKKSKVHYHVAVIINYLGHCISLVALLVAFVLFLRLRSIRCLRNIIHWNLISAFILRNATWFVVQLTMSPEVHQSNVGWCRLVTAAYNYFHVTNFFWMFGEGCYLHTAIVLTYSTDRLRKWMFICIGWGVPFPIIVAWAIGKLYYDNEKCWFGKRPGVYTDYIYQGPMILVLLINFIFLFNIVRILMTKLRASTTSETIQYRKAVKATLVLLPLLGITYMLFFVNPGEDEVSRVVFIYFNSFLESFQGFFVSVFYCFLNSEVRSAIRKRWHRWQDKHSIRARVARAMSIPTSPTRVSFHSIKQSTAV
Method in brief: as §1

Compound | EC50 (CRF2R) [nM] | EC50 (CRF1R) [nM] | EC50 (CRF2R; read-out: CRF2R EC50) [nM] | EC50 (CRF1R; read-out: CRF1R EC50) [nM]
CC[C@H](C)[C@H](NC(=O)[C@@H](NC(=O)[C@H](CC(=O)O)NC(=O)[C@H](CC(C)C)NC(=O)[C@H](CC(C)C)NC(=O)[C@H](CC(C)C)NC(=O)[C@H](CCCNC(=N)N)NC(=O)[C@H](CC(N)=O)NC(=O)[C@H](CC(N)=O)NC(=O)[C@H](C)NC(=O)[C@H](C)NC(=O)[C@H](CCC(N)=O)NC(=O)[C@H](CCC(N)=O)NC(=O)[C@H](CCCCN)NC(=O)[C@H](CCC(=O)O)NC(=O)[C@H](CCCCN)NC(=O)[C@H](CCC(=O)O)NC(=O)[C@H](CCC(N)=O)NC(=O)[C@H](CCCCN)NC(=O)[C@H](CCC(=O)O)NC(=O)[C@@H](NC(=O)[C@H](CCC(=O)O)NC(=O)[C@@H](NC(=O)[C@H](CCSC)NC(=O)[C@H](CCCCN)NC(=O)[C@H](CCCNC(=N)N)NC(=O)[C@H](CC(C)C)NC(=O)[C@H](CC(C)C)NC(=O)[C@H](Cc1c[nH]c2ccccc12)NC(=O)[C@@H](NC(=O)[C@@H]1CCCN1C(=O)[C@H](CC(C)C)NC(=O)[C@H](CC(=O)O)NC(=O)[C@@H](NC(=O)[C@H](CO)NC(=O)[C@@H](NC(=O)[C@@H]1CCCN1C(=O)[C@@H]1CCCN1C(=O)CNC(=O)[C@@H]1CCC(=O)N1)[C@@H](C)CC)[C@@H](C)CC)[C@@H](C)CC)[C@@H](C)CC)[C@@H](C)CC)[C@@H](C)O)C(N)=O [compound 192] | 66.8 | 562 |  | 
CC[C@H](C)[C@H](NC(=O)[C@@H](NC(=O)[C@H](CC(=O)O)NC(=O)[C@H](CC(C)C)NC(=O)[C@H](CC(C)C)NC(=O)[C@H](CC(C)C)NC(=O)[C@H](CCCNC(=N)N)NC(=O)[C@H](CC(N)=O)NC(=O)[C@H](CC(N)=O)NC(=O)[C@H](C)NC(=O)[C@H](C)NC(=O)[C@H](CCC(N)=O)NC(=O)[C@H](CCC(N)=O)NC(=O)[C@H](CCCCN)NC(=O)[C@H](CCC(=O)O)NC(=O)[C@H](CCCCN)NC(=O)[C@H](CCC(=O)O)NC(=O)[C@H](CCC(N)=O)NC(=O)[C@H](CCCCN)NC(=O)[C@H](CCC(=O)O)NC(=O)[C@@H](NC(=O)[C@H](CCC(=O)O)NC(=O)[C@@H](NC(=O)[C@H](CCSC)NC(=O)[C@H](CCCCN)NC(=O)[C@H](CCCNC(=N)N)NC(=O)[C@H](CC(C)C)NC(=O)[C@H](CC(C)C)NC(=O)[C@@H](NC(=O)[C@H](CC(C)C)NC(=O)[C@@H]1CCCN1C(=O)[C@H](CC(C)C)NC(=O)[C@H](CC(=O)O)NC(=O)[C@@H](NC(=O)[C@H](CO)NC(=O)[C@@H](NC(=O)[C@@H]1CCCN1C(=O)[C@@H]1CCCN1C(=O)CNC(=O)[C@@H]1CCC(=O)N1)[C@@H](C)CC)[C@@H](C)CC)C(C)C)[C@@H](C)CC)[C@@H](C)CC)[C@@H](C)O)C(N)=O [compound 193] | 10.1 | 265 |  | 
CC[C@H](C)[C@H](NC(=O)[C@@H](NC(=O)[C@H](CC(=O)O)NC(=O)[C@H](CC(C)C)NC(=O)[C@H](CC(C)C)NC(=O)[C@H](CC(C)C)NC(=O)[C@H](CCCNC(=N)N)NC(=O)[C@H](CC(N)=O)NC(=O)[C@H](CC(N)=O)NC(=O)[C@H](C)NC(=O)[C@H](C)NC(=O)[C@H](CCC(N)=O)NC(=O)[C@H](CCC(N)=O)NC(=O)[C@H](CCCCN)NC(=O)[C@H](CCC(=O)O)NC(=O)[C@H](CCCCN)NC(=O)[C@H](CCC(=O)O)NC(=O)[C@H](CCC(N)=O)NC(=O)[C@H](CCCCN)NC(=O)[C@H](CCC(=O)O)NC(=O)[C@@H](NC(=O)[C@H](CCC(=O)O)NC(=O)[C@@H](NC(=O)[C@H](CCSC)NC(=O)[C@H](CCCCN)NC(=O)[C@H](CCCNC(=N)N)NC(=O)[C@H](CC(C)C)NC(=O)[C@H](CC(C)C)NC(=O)[C@H](CC(C)C)NC(=O)[C@H](CCC(N)=O)NC(=O)[C@@H]1CCCN1C(=O)[C@H](CC(C)C)NC(=O)[C@H](CC(=O)O)NC(=O)[C@@H](NC(=O)[C@H](CO)NC(=O)[C@@H](NC(=O)[C@@H]1CCCN1C(=O)[C@@H]1CCCN1C(=O)CNC(=O)[C@@H]1CCC(=O)N1)[C@@H](C)CC)[C@@H](C)CC)[C@@H](C)CC)[C@@H](C)CC)[C@@H](C)O)C(N)=O [compound 196] | 27.7 | 447 |  | 
CC[C@H](C)[C@H](NC(=O)[C@@H](NC(=O)[C@H](CC(=O)O)NC(=O)[C@H](CC(C)C)NC(=O)[C@H](CC(C)C)NC(=O)[C@H](CC(C)C)NC(=O)[C@H](CCCNC(=N)N)NC(=O)[C@H](CC(N)=O)NC(=O)[C@H](CC(N)=O)NC(=O)[C@H](C)NC(=O)[C@H](C)NC(=O)[C@H](CCC(N)=O)NC(=O)[C@H](CCC(N)=O)NC(=O)[C@H](CCCCN)NC(=O)[C@H](CCC(=O)O)NC(=O)[C@H](CCCCN)NC(=O)[C@H](CCC(=O)O)NC(=O)[C@H](CCC(N)=O)NC(=O)[C@H](CCCCN)NC(=O)[C@H](CCC(=O)O)NC(=O)[C@@H](NC(=O)[C@H](CCC(=O)O)NC(=O)[C@@H](NC(=O)[C@H](CCSC)NC(=O)[C@H](CCCCN)NC(=O)[C@H](CCCNC(=N)N)NC(=O)[C@H](CC(C)C)NC(=O)[C@H](CC(C)C)NC(=O)[C@@H](NC(=O)[C@H](CCC(N)=O)NC(=O)[C@@H]1CCCN1C(=O)[C@H](CC(C)C)NC(=O)[C@H](CC(=O)O)NC(=O)[C@@H](NC(=O)[C@H](CO)NC(=O)[C@@H](NC(=O)[C@@H]1CCCN1C(=O)[C@@H]1CCCN1C(=O)CNC(=O)[C@@H]1CCC(=O)N1)[C@@H](C)CC)[C@@H](C)CC)[C@@H](C)CC)[C@@H](C)CC)[C@@H](C)CC)[C@@H](C)O)C(N)=O [compound 199] | 8.5 | 707 |  | 
CC[C@H](C)[C@H](NC(=O)[C@@H](NC(=O)[C@H](CC(=O)O)NC(=O)[C@H](CC(C)C)NC(=O)[C@H](CC(C)C)NC(=O)[C@H](CC(C)C)NC(=O)[C@H](CCCNC(=N)N)NC(=O)[C@H](CC(N)=O)NC(=O)[C@H](CC(N)=O)NC(=O)[C@H](C)NC(=O)[C@H](C)NC(=O)[C@H](CCC(N)=O)NC(=O)[C@H](CCC(N)=O)NC(=O)[C@H](CCCCN)NC(=O)[C@H](CCC(=O)O)NC(=O)[C@H](CCCCN)NC(=O)[C@H](CCC(=O)O)NC(=O)[C@H](CCC(N)=O)NC(=O)[C@H](CCCCN)NC(=O)[C@H](CCC(=O)O)NC(=O)[C@@H](NC(=O)[C@H](CCC(=O)O)NC(=O)[C@@H](NC(=O)[C@H](CCSC)NC(=O)[C@H](CCCCN)NC(=O)[C@H](CCCNC(=N)N)NC(=O)[C@H](CC(C)C)NC(=O)[C@H](CC(C)C)NC(=O)[C@H](CCC(N)=O)NC(=O)[C@H](Cc1ccc(O)cc1)NC(=O)[C@@H]1CCCN1C(=O)[C@H](CC(C)C)NC(=O)[C@H](CC(=O)O)NC(=O)[C@@H](NC(=O)[C@H](CO)NC(=O)[C@@H](NC(=O)[C@@H]1CCCN1C(=O)[C@@H]1CCCN1C(=O)CNC(=O)[C@@H]1CCC(=O)N1)[C@@H](C)CC)[C@@H](C)CC)[C@@H](C)CC)[C@@H](C)CC)[C@@H](C)O)C(N)=O [compound 202] | 8.7 | 404 |  | 
CC[C@H](C)[C@H](NC(=O)[C@@H](NC(=O)[C@H](CC(=O)O)NC(=O)[C@H](CC(C)C)NC(=O)[C@H](CC(C)C)NC(=O)[C@H](CC(C)C)NC(=O)[C@H](CCCNC(=N)N)NC(=O)[C@H](CC(N)=O)NC(=O)[C@H](CC(N)=O)NC(=O)[C@H](C)NC(=O)[C@H](C)NC(=O)[C@H](CCC(N)=O)NC(=O)[C@H](CCC(N)=O)NC(=O)[C@H](CCCCN)NC(=O)[C@H](CCC(=O)O)NC(=O)[C@H](CCCCN)NC(=O)[C@H](CCC(=O)O)NC(=O)[C@H](CCC(N)=O)NC(=O)[C@H](CCCCN)NC(=O)[C@H](CCC(=O)O)NC(=O)[C@@H](NC(=O)[C@H](CCC(=O)O)NC(=O)[C@@H](NC(=O)[C@H](CCSC)NC(=O)[C@H](CCCCN)NC(=O)[C@H](CCCNC(=N)N)NC(=O)[C@H](CC(C)C)NC(=O)[C@H](CC(C)C)NC(=O)[C@H](Cc1c[nH]cn1)NC(=O)[C@H](C)NC(=O)[C@@H]1CCCN1C(=O)[C@H](CC(C)C)NC(=O)[C@H](CC(=O)O)NC(=O)[C@@H](NC(=O)[C@H](CO)NC(=O)[C@@H](NC(=O)[C@@H]1CCCN1C(=O)[C@@H]1CCCN1C(=O)CNC(=O)[C@@H]1CCC(=O)N1)[C@@H](C)CC)[C@@H](C)CC)[C@@H](C)CC)[C@@H](C)CC)[C@@H](C)O)C(N)=O [compound 206] |  |  | 30.5 | 696
CC[C@H](C)[C@H](NC(=O)[C@@H](NC(=O)[C@H](CC(=O)O)NC(=O)[C@H](CC(C)C)NC(=O)[C@H](CC(C)C)NC(=O)[C@H](CC(C)C)NC(=O)[C@H](CCCNC(=N)N)NC(=O)[C@H](CC(N)=O)NC(=O)[C@H](CC(N)=O)NC(=O)[C@H](C)NC(=O)[C@H](C)NC(=O)[C@H](CCC(N)=O)NC(=O)[C@H](CCC(N)=O)NC(=O)[C@H](CCCCN)NC(=O)[C@H](CCC(=O)O)NC(=O)[C@H](CCCCN)NC(=O)[C@H](CCC(=O)O)NC(=O)[C@H](CCC(N)=O)NC(=O)[C@H](CCCCN)NC(=O)[C@H](CCC(=O)O)NC(=O)[C@@H](NC(=O)[C@H](CCC(=O)O)NC(=O)[C@@H](NC(=O)[C@H](CCSC)NC(=O)[C@H](CCCCN)NC(=O)[C@H](CCCNC(=N)N)NC(=O)[C@H](CC(C)C)NC(=O)[C@H](CC(C)C)NC(=O)[C@H](Cc1c[nH]cn1)NC(=O)[C@H](CCC(N)=O)NC(=O)[C@@H]1CCCN1C(=O)[C@H](CC(C)C)NC(=O)[C@H](CC(=O)O)NC(=O)[C@@H](NC(=O)[C@H](CO)NC(=O)[C@@H](NC(=O)[C@@H]1CCCN1C(=O)[C@@H]1CCCN1C(=O)CNC(=O)[C@@H]1CCC(=O)N1)[C@@H](C)CC)[C@@H](C)CC)[C@@H](C)CC)[C@@H](C)CC)[C@@H](C)O)C(N)=O [compound 207] | 61.4 | 466 |  | 

Where two headings read alike, the source gives them in different places.
